# Results published in PubChem BioAssay AID588850 (Sanford-Burnham Center for Chemical Genomics, 2011).
# Only a part is listed here, and it is no random draw. Activity calls are given as the source filed them.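 The calls were made as follows: active = at least 50% inhibition at 5 µM, scaled per plate between neutral and stimulator controls; inactive = the rest.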
# Assay: NF-kB reporter blockers in CF airway cells – cell-based, GFP fluorescence, uHTS, primary screen (AID 588850);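 also: PAF is a Pseudomonas aeruginosa culture filtrate used as stimulus; plate controls were PAF-stimulated DMSO wells for no effect and unstimulated DMSO wells for full effect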
# Conditions: KKLEB NF-kB-GFP reporter, PAF-induced, GFP fluorescence overnight; at 5 µM; hits give high values
row,SMILES,inhibition
1,O=[N+]([O-])c1cc([N+](=O)[O-])c(-c2cnn(-c3ccccc3)c2)c([N+](=O)[O-])c1,inactive: 12.4%
2,Cc1nc2ccc3ccccc3c2s1.O=[N+]([O-])c1cc([N+](=O)[O-])c(O)c([N+](=O)[O-])c1,inactive: 16.2%
3,O=[N+]([O-])c1cc([N+](=O)[O-])c(-n2nnc3ccccc32)c([N+](=O)[O-])c1,inactive: -5.5%
4,CN(Cc1cccnc1)C(=O)COc1ccc(Cl)c(Cl)c1.O=[N+]([O-])c1cc([N+](=O)[O-])c(O)c([N+](=O)[O-])c1,inactive: -2.5%
5,CP(=O)(Nc1cccc(Br)c1)Oc1ccccc1 (configuration not stated),inactive: -16.4%
6,Cc1cc(C)cc(OP(C)(=O)Nc2ccccn2)c1 (configuration not stated),inactive: 4.2%
7,Cc1ccc(C)c(NP(C)(=O)Oc2ccccc2)c1 (configuration not stated),inactive: 13.3%
8,COc1ccccc1OP(C)(=O)Nc1cccc(Br)c1 (configuration not stated),inactive: -3.8%
9,Cc1cc(C)cc(OP(C)(=O)Nc2ccc(C)cc2C)c1 (configuration not stated),inactive: 0.9%
10,CCOC(=O)c1ccc(NP(C)(=O)Oc2cc(C)cc(C)c2)cc1 (configuration not stated),inactive: 4%
11,CC1=NCCc2c1[nH]c1ccccc21.O=[N+]([O-])c1cc([N+](=O)[O-])c(O)c([N+](=O)[O-])c1,inactive: 11.4%
12,O=C(O)c1cccc(Nc2c([N+](=O)[O-])cc([N+](=O)[O-])cc2[N+](=O)[O-])c1,inactive: -7.6%
13,CCOC(=O)c1ccc(NP(C)(=O)Oc2ccccc2)cc1 (configuration not stated),inactive: 31.7%
14,Cc1ccc(NP(C)(=O)Oc2ccccc2)c(C)c1 (configuration not stated),inactive: -1.2%
15,COc1ccccc1OP(C)(=O)Nc1ccc(C)cc1 (configuration not stated),inactive: 1.3%
16,COc1ccc(OP(C)(=O)Nc2cccc(F)c2)cc1 (configuration not stated),inactive: 8.6%
17,COc1ccccc1OP(C)(=O)Nc1cc(Cl)ccc1C (configuration not stated),inactive: 27.9%
18,Cc1cc(C)cc(OP(C)(N)=O)c1 (configuration not stated),inactive: -11.6%
19,O=[N+]([O-])c1cc([N+](=O)[O-])c(Nc2cccnc2)c([N+](=O)[O-])c1,inactive: 39.6%

row,SMILES,inhibition
1,Cc1cccc(C)c1OP(C)(N)=O (configuration not stated),inactive: -5%
2,CC(C)(C)c1ccc(OP(C)(=O)Nc2ccc(SC(F)(F)F)cc2)cc1 (configuration not stated),inactive: 8.4%
3,O=[N+]([O-])c1ccc2c(c1)C=Nc1ccccc1O2,inactive: 46.3%
4,CCN(CC)CCCOC(=O)C(O)(c1ccccc1)c1ccccc1,inactive: -10.2%
5,CCOP(C)(=S)SCC(=O)NC(C)C(=O)O (configuration not stated),inactive: -2.3%
6,O=[N+]([O-])c1cc([N+](=O)[O-])c(O)c([N+](=O)[O-])c1.c1ccc(Oc2ccncc2)cc1,inactive: -5.5%
7,CCOC(=O)c1ccc(NP(C)(=O)Oc2ccc(OC)cc2)cc1 (configuration not stated),inactive: 6.5%
8,CP(=O)(Nc1ccccn1)Oc1ccc(Cl)cc1 (configuration not stated),inactive: 6.7%
9,CP(=O)(Oc1ccccc1)OC(c1ccccc1)C(F)(F)F (configuration not stated),inactive: 2.5%
10,CP(=O)(Nc1ccc(SC(F)(F)F)cc1)Oc1ccc(Cl)cc1 (configuration not stated),inactive: 15.5%
11,Cc1ccc(Nc2c([N+](=O)[O-])cc([N+](=O)[O-])cc2[N+](=O)[O-])cc1,inactive: 45.7%
12,Cc1cccc(C)c1OP(C)(=O)Nc1ccc(SC(F)(F)F)cc1 (configuration not stated),inactive: 5%
13,Cc1cc(C)cc(OP(C)(=O)Nc2ccc(SC(F)(F)F)cc2)c1 (configuration not stated),inactive: -2.8%
14,CCc1ccc(OP(C)(=O)N2CCN(c3ccc([N+](=O)[O-])cc3)CC2)cc1 (configuration not stated),inactive: -9.2%
15,CP(=O)(NC(=O)Nc1ccccc1)Oc1ccccc1 (configuration not stated),inactive: 12%
16,CP(=S)(Nn1cnnc1)Oc1ccccc1 (configuration not stated),inactive: 1.1%
17,COc1ccccc1OP(C)(=O)Nc1ccccc1 (configuration not stated),inactive: -4.9%
18,CP(=O)(Nc1ccccc1Br)Oc1ccccc1 (configuration not stated),inactive: 0.2%
